Measurements as given in patent publication US12616739B2, “GLP-1 prodrugs and uses thereof” (Novo Nordisk A/S, priority 2020, dated 2026).

Assay: Prodrug to drug conversion half-life in vitro, PBS pH 7.4, 37° C.
Assay type: physicochemical
Method: General Methods for Measuring Conversion Half-Life
The assay was performed to investigate the conversion half-life of prodrug to drug of the prodrugs of the invention.
Peptide stock solutions were prepared by dissolving freeze-dried powder in PBS buffer to a target of 200 μM. PBS-buffer was Dulbecco's Phosphate Buffered Saline without CaCl2 and MgCl2, gibco 14190-094 adjusted to pH=7.4. The pH of the peptide stock solutions was adjusted to 7.4 with 0.02 M HCl or 0.02M NaOH. Samples were filled in Agilent HPLC vials with fixed insert. Vials were capped to prevent evaporation. The HPLC vials were incubated at 37° C. and samples were withdrawn at different time points over a period of 2 weeks, flash frozen at −80° C., and stored at −20° C. until analysis.
Sample analysis was carried out using UPLC coupled to UV detection at 215 nm and MS (UPLC-UV-MS). One μl of sample was injected on to a Waters Acquity UPLC with a flow-through-needle injection system and on to a Waters Acquity CSH C18 column (1*150 mm), with a particle size of 1.7 μm and held at 55° C. A flow-rate of 100 μl/min was delivered with a Binary solvent manager pump having 0.1% formic acid in water as solvent A and 0.1% formic acid in acetonitrile as solvent B. Gradient elution was carried out using 15-32% B from 0 to 4 min followed by 32 to 48% B from 4 to 54 min.
The identity of the prodrug was confirmed by MS and the peak purity, area %, from the UV signal at 215 nm was plotted as the natural logarithm against time and the slope (k) was used to calculate the first order half-life (T½)=T½=Ln(2)/k.

## CC[C@H](C)[C@H](NC(=O)[C@H](Cc1ccccc1)NC(=O)[C@H](CCC(=O)O)NC(=O)[C@H](CCCCNC(=O)COCCOCCNC(=O)COCCOCCNC(=O)CC[C@H](NC(=O)CCCCCCCCCCCCCCCCC(=O)O)C(=O)O)NC(=O)[C@H](C)NC(=O)[C@H](C)NC(=O)[C@H](CCC(N)=O)NC(=O)CNC(=O)[C@H](CCC(=O)O)NC(=O)[C@H](CC(C)C)NC(=O)[C@H](Cc1ccc(O)cc1)NC(=O)[C@H](CO)NC(=O)[C@H](CO)NC(=O)[C@@H](NC(=O)[C@H](CC(=O)O)NC(=O)[C@H](CO)NC(=O)[C@@H](NC(=O)[C@H](Cc1ccccc1)NC(=O)[C@@H](NC(=O)CNC(=O)[C@H](CCC(=O)O)NC(=O)C(C)(C)NC(=O)[C@H](Cc1c[nH]cn1)NC(=O)CN(CCNC(=O)CNC(=O)CC[C@H](NC(=O)CCCCCCCCCCCCCCC(=O)O)C(=O)O)C(=O)CN)[C@@H](C)O)[C@@H](C)O)C(C)C)C(=O)N[C@@H](C)C(=O)N[C@@H](Cc1c[nH]c2ccccc12)C(=O)N[C@@H](CC(C)C)C(=O)N[C@H](C(=O)N[C@@H](CCCNC(=N)N)C(=O)NCC(=O)N[C@@H](CCCNC(=N)N)C(=O)NCC(=O)O)C(C)C [Chem. 25, Gly-N^α-2-[[2-[[(4S)-4-carboxy-4-(15-carboxypentadecanoylamino)butanoyl]amino]acetyl]amino]ethyl-Gly-semaglutide]
  half-life: 6.1 days

## CC[C@H](C)[C@H](NC(=O)[C@H](Cc1ccccc1)NC(=O)[C@H](CCC(=O)O)NC(=O)[C@H](CCCCNC(=O)COCCOCCNC(=O)COCCOCCNC(=O)CC[C@H](NC(=O)CCCCCCCCCCCCCCCCC(=O)O)C(=O)O)NC(=O)[C@H](C)NC(=O)[C@H](C)NC(=O)[C@H](CCC(N)=O)NC(=O)CNC(=O)[C@H](CCC(=O)O)NC(=O)[C@H](CC(C)C)NC(=O)[C@H](Cc1ccc(O)cc1)NC(=O)[C@H](CO)NC(=O)[C@H](CO)NC(=O)[C@@H](NC(=O)[C@H](CC(=O)O)NC(=O)[C@H](CO)NC(=O)[C@@H](NC(=O)[C@H](Cc1ccccc1)NC(=O)[C@@H](NC(=O)CNC(=O)[C@H](CCC(=O)O)NC(=O)C(C)(C)NC(=O)[C@H](Cc1c[nH]cn1)NC(=O)CN(CCNC(=O)CC[C@H](NC(=O)CCCCCCCCCCCCCCCCCCC(=O)O)C(=O)O)C(=O)CN)[C@@H](C)O)[C@@H](C)O)C(C)C)C(=O)N[C@@H](C)C(=O)N[C@@H](Cc1c[nH]c2ccccc12)C(=O)N[C@@H](CC(C)C)C(=O)N[C@H](C(=O)N[C@@H](CCCNC(=N)N)C(=O)NCC(=O)N[C@@H](CCCNC(=N)N)C(=O)NCC(=O)O)C(C)C [Chem. 27, Gly-N^α-2-[[(4S)-4-carboxy-4-(19-carboxynonadecanoylamino)butanoyl]amino]ethyl-Gly-semaglutide]
  half-life: 4.7 days

## CC[C@H](C)[C@H](NC(=O)[C@H](Cc1ccccc1)NC(=O)[C@H](CCC(=O)O)NC(=O)[C@H](CCCCNC(=O)COCCOCCNC(=O)COCCOCCNC(=O)CC[C@H](NC(=O)CCCCCCCCCCCCCCCCC(=O)O)C(=O)O)NC(=O)[C@H](C)NC(=O)[C@H](C)NC(=O)[C@H](CCC(N)=O)NC(=O)CNC(=O)[C@H](CCC(=O)O)NC(=O)[C@H](CC(C)C)NC(=O)[C@H](Cc1ccc(O)cc1)NC(=O)[C@H](CO)NC(=O)[C@H](CO)NC(=O)[C@@H](NC(=O)[C@H](CC(=O)O)NC(=O)[C@H](CO)NC(=O)[C@@H](NC(=O)[C@H](Cc1ccccc1)NC(=O)[C@@H](NC(=O)CNC(=O)[C@H](CCC(=O)O)NC(=O)C(C)(C)NC(=O)[C@H](Cc1c[nH]cn1)NC(=O)CN(CCNC(=O)CC[C@H](NC(=O)CC[C@H](NC(=O)CCCCCCCCCCCCCCCCC(=O)O)C(=O)O)C(=O)O)C(=O)CN)[C@@H](C)O)[C@@H](C)O)C(C)C)C(=O)N[C@@H](C)C(=O)N[C@@H](Cc1c[nH]c2ccccc12)C(=O)N[C@@H](CC(C)C)C(=O)N[C@H](C(=O)N[C@@H](CCCNC(=N)N)C(=O)NCC(=O)N[C@@H](CCCNC(=N)N)C(=O)NCC(=O)O)C(C)C [Chem. 28, Gly-N^α-2-[[(4S)-4-carboxy-4-[[(4S)-4-carboxy-4-(17-carboxyheptadecanoylamino)butanoyl]amino]butanoyl]amino]ethyl-Gly-semaglutide]
  half-life: 6.9 days

## CC[C@H](C)[C@H](NC(=O)[C@H](Cc1ccccc1)NC(=O)[C@H](CCC(=O)O)NC(=O)[C@H](CCCCNC(=O)COCCOCCNC(=O)COCCOCCNC(=O)CC[C@H](NC(=O)CCCCCCCCCCCCCCCCC(=O)O)C(=O)O)NC(=O)[C@H](C)NC(=O)[C@H](C)NC(=O)[C@H](CCC(N)=O)NC(=O)CNC(=O)[C@H](CCC(=O)O)NC(=O)[C@H](CC(C)C)NC(=O)[C@H](Cc1ccc(O)cc1)NC(=O)[C@H](CO)NC(=O)[C@H](CO)NC(=O)[C@@H](NC(=O)[C@H](CC(=O)O)NC(=O)[C@H](CO)NC(=O)[C@@H](NC(=O)[C@H](Cc1ccccc1)NC(=O)[C@@H](NC(=O)CNC(=O)[C@H](CCC(=O)O)NC(=O)C(C)(C)NC(=O)[C@H](Cc1c[nH]cn1)NC(=O)CN(CCNC(=O)[C@H](CO)NC(=O)CC[C@H](NC(=O)CCCCCCCCCCCCCCCCC(=O)O)C(=O)O)C(=O)CN)[C@@H](C)O)[C@@H](C)O)C(C)C)C(=O)N[C@@H](C)C(=O)N[C@@H](Cc1c[nH]c2ccccc12)C(=O)N[C@@H](CC(C)C)C(=O)N[C@H](C(=O)N[C@@H](CCCNC(=N)N)C(=O)NCC(=O)N[C@@H](CCCNC(=N)N)C(=O)NCC(=O)O)C(C)C [Chem. 29, Gly-N^α-2-[[(2S)-2-[[(4S)-4-carboxy-4-(17-carboxyheptadecanoylamino)butanoyl]amino]-3-hydroxypropanoyl]amino]ethyl-Gly-semaglutide]
  half-life: 9.1 days

## CC[C@H](C)[C@H](NC(=O)[C@H](Cc1ccccc1)NC(=O)[C@H](CCC(=O)O)NC(=O)[C@H](CCCCNC(=O)COCCOCCNC(=O)COCCOCCNC(=O)CC[C@H](NC(=O)CCCCCCCCCCCCCCCCC(=O)O)C(=O)O)NC(=O)[C@H](C)NC(=O)[C@H](C)NC(=O)[C@H](CCC(N)=O)NC(=O)CNC(=O)[C@H](CCC(=O)O)NC(=O)[C@H](CC(C)C)NC(=O)[C@H](Cc1ccc(O)cc1)NC(=O)[C@H](CO)NC(=O)[C@H](CO)NC(=O)[C@@H](NC(=O)[C@H](CC(=O)O)NC(=O)[C@H](CO)NC(=O)[C@@H](NC(=O)[C@H](Cc1ccccc1)NC(=O)[C@@H](NC(=O)CNC(=O)[C@H](CCC(=O)O)NC(=O)C(C)(C)NC(=O)[C@H](Cc1c[nH]cn1)NC(=O)CN(CCNC(=O)CNC(=O)CC[C@H](NC(=O)CCCCCCCCCCCCCCCCC(=O)O)C(=O)O)C(=O)CN)[C@@H](C)O)[C@@H](C)O)C(C)C)C(=O)N[C@@H](C)C(=O)N[C@@H](Cc1c[nH]c2ccccc12)C(=O)N[C@@H](CC(C)C)C(=O)N[C@H](C(=O)N[C@@H](CCCNC(=N)N)C(=O)NCC(=O)N[C@@H](CCCNC(=N)N)C(=O)NCC(=O)O)C(C)C [Chem. 30, Gly-N^α-2-[[2-[[(4S)-4-carboxy-4-(17-carboxyheptadecanoylamino)butanoyl]amino]acetyl]amino]ethyl-Gly-semaglutide]
  half-life: 8.4 days
